Data: publication PMC10214761

Protein sequences, listed by entry. Tags and fused reporters are not part of them. Residues count along the entry.
UniProt P12318, 34-217: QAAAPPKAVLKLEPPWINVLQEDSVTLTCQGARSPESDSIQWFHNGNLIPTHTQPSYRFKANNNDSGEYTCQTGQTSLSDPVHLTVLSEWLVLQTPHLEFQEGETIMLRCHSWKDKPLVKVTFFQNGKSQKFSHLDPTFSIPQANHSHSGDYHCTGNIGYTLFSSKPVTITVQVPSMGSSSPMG
UniProt P31994, 43-217: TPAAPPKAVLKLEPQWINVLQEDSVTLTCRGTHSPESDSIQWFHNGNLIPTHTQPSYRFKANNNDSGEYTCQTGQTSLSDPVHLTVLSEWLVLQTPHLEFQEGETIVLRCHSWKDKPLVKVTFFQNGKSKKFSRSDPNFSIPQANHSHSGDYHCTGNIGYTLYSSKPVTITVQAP

Legend:
[1] = target: human Fcγ receptor IIa (hFcγRIIa) (human) (UniProt P12318); assay: SPR; CM5 chip with anti-His-tag antibodies (~600 RU); 5 μg/mL His-tagged receptor captured; 100 μg/mL ICI or control flowed for 60 s; response read 5 s before the end of the injection; 25 °C
[2] = target: human Fcγ receptor IIb/c (hFcγRIIb/c) (human) (UniProt P31994); assay: as above

Q: What does the source list for “IgG1k from human myeloma plasma (IgG1 MC) (antibody)”?
A: response units, mean of three runs [1]: 133 RU; response units, run 1 [1]: 142 RU; response units, run 2 [1]: 144 RU; response units, run 3 [1]: 115 RU; response units, mean of three runs [2]: 71 RU; response units, run 1 [2]: 81 RU; response units, run 2 [2]: 71 RU; response units, run 3 [2]: 60 RU

Q: What does the source list for “IgG4k from human myeloma plasma (IgG4 MC) (antibody)”?
A: response units, mean of three runs [1]: 27 RU; response units, run 1 [1]: 22 RU; response units, run 2 [1]: 45 RU; response units, mean of three runs [2]: 49 RU; response units, run 1 [2]: 44 RU; response units, run 2 [2]: 65 RU; response units, run 3 [2]: 38 RU
